# Measured values published in paper PMC10582583, “The novel cyclophilin inhibitor C105SR reduces hepatic ischaemia–reperfusion injury via mitoprotection” (JHEP Reports, 2023).
# By UniProt entry, the sequences of proteins in these tests, tags left out. Residues count along the entry.
# UniProt P30405, 30-207 limits assumed: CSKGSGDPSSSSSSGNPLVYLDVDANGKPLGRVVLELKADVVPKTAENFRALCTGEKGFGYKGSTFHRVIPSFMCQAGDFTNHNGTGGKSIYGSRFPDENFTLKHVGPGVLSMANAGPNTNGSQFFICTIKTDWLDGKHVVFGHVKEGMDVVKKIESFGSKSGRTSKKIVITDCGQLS
# Key:
# Assay type in all cases: biochemical
# CypD = CypD (Homo sapiens, UniProt P30405); assay: CypD PPIase activity, chymotrypsin-coupled assay; settings: read-out: CypD PPIase activity IC50; Table 1
# [1] = system: isolated mouse liver mitochondria; assay: Ca2+-induced mitochondrial swelling assay; settings: read-out: Mitochondrial swelling IC50, energised isolated mouse liver mitochondria
# [2] = system: isolated mouse liver mitochondria; assay: Calcium retention capacity (CRC) assay in isolated liver mitochondria
Compound,IC50 (CypD) [µM],further results
COc1ccc(Br)cc1C(NC(=O)NCc1ccc(N)cn1)C(=O)N1CCCC1c1ccccc1SC (stereo not shown),0.5,
CSc1ccccc1C1CCCN1C(=O)C(NC(=O)NCc1ccc(O)c2ncccc12)c1ccccc1 (stereo not shown),0.63,
CSc1ccccc1C1CCCN1C(=O)C(NC(=O)NCc1cccc2c1OC(F)(F)O2)c1ccccc1 (stereo not shown),0.72,
COc1ccc(OC)c(C(NC(=O)NCc2ccc3c(c2)CCCN3)C(=O)N2CCCC2c2ccccc2SC)c1 (stereo not shown),0.65,
CSc1ccccc1C1CCCN1C(=O)C(NC(=O)NCc1cc(F)cc2c1OCCO2)c1ccccc1 (stereo not shown),0.48,

# Molecules with a lower IC50 (CypD), results first:
IC50 (CypD) [µM],Compound,further results
0.28,CSc1ccccc1C1CCCN1C(=O)C(NC(=O)NCc1cccc2c1CCCN2C(C)=O)c1ccccc1 (stereo not shown),
0.15,CSc1ccccc1C1CCCN1C(=O)C(NC(=O)NC[C@H]1CC[C@H](N)CC1)c1ccccc1 (stereo partly shown),
0.16,CSc1ccccc1C1CCCN1C(=O)C(NC(=O)NCc1ccc(NCc2ccccc2F)cc1)c1ccccc1 (stereo not shown),
0.26,CSc1ccccc1C1CCCN1C(=O)C(NC(=O)NCc1ccc(NCC2CCCNC2)cc1)c1ccccc1 (stereo not shown),"IC50 [1]: 2.56 µM; maximal mitochondrial CRC ([2]; compound at 100 μM (Fig. 1C), basal 160 ± 8): 473 ± 38 nmol Ca2+/mg of mitochondrial; EC50 ([2]; read-out: Calcium retention capacity EC50, isolated mouse liver mitochondria): 10.2 µM"
0.32,COc1ccc(OC)c(C(NC(=O)NCc2ccc(N)cc2)C(=O)N2CCCC2c2ccccc2SC)c1 (stereo not shown),
